This is an account of results in ChEMBL document CHEMBL1151751, “Bisphosphonate inhibition of a Plasmodium farnesyl diphosphate synthase and a general method for predicting cell-based activity from enzyme data” (J Med Chem, 2008).

A short description of this test: Inhibition of Plasmodium vivax FPPS expressed in Escherichia coli BL21 by spectrophotometric assay. The method, boiled down: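 Recombinant enzyme from lysed cells (lysozyme, nuclease, protease inhibitors), purified on Ni-NTA resin. The GPP + IPP condensation was followed at room temperature by a continuous spectrophotometric phosphate-release assay in 25 mM Hepes, 2.5 mM MgCl₂, pH 7.4. Inhibitors were preincubated with enzyme for 30 min at room temperature. IC50 was obtained by fitting the dose–response curve.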

SMILES strings stand for the structures.

As for `O.O=P(O)(O)C(O)(Cn1ccnc1)P(=O)(O)O` [ZOLEDRONIC ACID], the pIC50 is 6.1.
